{"source": "PubChem BioAssay AID623870", "about": "(Broad Institute, 2012)", "note": "Only a part is listed here, and it is no random draw. Some salts or complexes appear as unconnected parts, following the source record. The source made the active and inactive calls.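 The calls were made as follows: active = mean inhibition of replicates at least 50% and at least half of replicates each reaching 50%; inconclusive = half or more replicates reach 50% but mean below 50%; inactive = the rest.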"}
{"target": "Transforming acidic coiled-coil-containing protein 3 (Homo sapiens) (UniProt Q9Y6A5)", "experiment": "inhibitors of ARNT PAS-B binding to TACC3 – biochemical, AlphaScreen, single concentration, primary screen (AID 623870);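 also: 0% = complete ARNT plus TACC3 wells and 100% = ARNT alone without TACC3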", "conditions": "AlphaScreen His-ARNT PAS-B/GST-TACC3 binding, luminescence; at 9.99 µM; hits give high values; TACC3 fragment carries E629A point mutation"}
{"smiles": "CP(=O)(Nc1ccccn1)Oc1ccc(Cl)cc1", "note": "(stereo not given)", "inhibition": "inactive: -5.48%"}
{"smiles": "CCOP(C)(=S)SCC(=O)NC(C)C(=O)O", "note": "(stereo not given)", "inhibition": "inactive: -7.32%"}
{"smiles": "CCOC(=O)c1ccc(NP(C)(=O)Oc2ccc(OC)cc2)cc1", "note": "(stereo not given)", "inhibition": "inactive: 0.105%"}
{"smiles": "CCc1ccc(OP(C)(=O)N2CCN(c3ccc([N+](=O)[O-])cc3)CC2)cc1", "note": "(stereo not given)", "inhibition": "inactive: 10.1%"}
{"smiles": "CP(=O)(NC(=O)Nc1ccccc1)Oc1ccccc1", "note": "(stereo not given)", "inhibition": "inactive: -4.87%"}
{"smiles": "Cc1cc(C)cc(OP(C)(=O)Nc2ccc(SC(F)(F)F)cc2)c1", "note": "(stereo not given)", "inhibition": "inactive: 8.37%"}
{"smiles": "Cc1cccc(C)c1OP(C)(=O)Nc1ccc(SC(F)(F)F)cc1", "note": "(stereo not given)", "inhibition": "inactive: -20.7%"}
{"smiles": "CP(=O)(Oc1ccccc1)OC(c1ccccc1)C(F)(F)F", "note": "(stereo not given)", "inhibition": "inactive: -9.56%"}
{"smiles": "COc1ccccc1OP(C)(=O)Nc1ccccc1", "note": "(stereo not given)", "inhibition": "inactive: -1.92%"}
{"smiles": "CP(=O)(Nc1ccccc1Br)Oc1ccccc1", "note": "(stereo not given)", "inhibition": "inactive: -2.8%"}
{"smiles": "CP(=S)(Nn1cnnc1)Oc1ccccc1", "note": "(stereo not given)", "inhibition": "inactive: 11.1%"}
{"smiles": "COc1ccccc1OP(C)(=O)Nc1cc(Cl)ccc1C", "note": "(stereo not given)", "inhibition": "inactive: 3.66%"}
{"smiles": "COc1ccc(OP(C)(=O)Nc2cccc(F)c2)cc1", "note": "(stereo not given)", "inhibition": "inactive: -1.72%"}
{"smiles": "Cc1cc(C)cc(OP(C)(N)=O)c1", "note": "(stereo not given)", "inhibition": "inactive: -7.79%"}
{"smiles": "CCOC(=O)c1ccc(NP(C)(=O)Oc2ccccc2)cc1", "note": "(stereo not given)", "inhibition": "inactive: 2.9%"}
{"smiles": "Cc1ccc(NP(C)(=O)Oc2ccccc2)c(C)c1", "note": "(stereo not given)", "inhibition": "inactive: -3.55%"}
{"smiles": "CC(C)(C)c1ccc(OP(C)(=O)Nc2ccc(SC(F)(F)F)cc2)cc1", "note": "(stereo not given)", "inhibition": "inactive: -7.66%"}
{"smiles": "Cc1cccc(C)c1OP(C)(N)=O", "note": "(stereo not given)", "inhibition": "inactive: -0.617%"}
{"smiles": "O=[N+]([O-])c1ccc2c(c1)C=Nc1ccccc1O2", "inhibition": "inactive: 7.07%"}
{"smiles": "O=[N+]([O-])c1cc([N+](=O)[O-])c(Nc2cccnc2)c([N+](=O)[O-])c1", "inhibition": "inactive: -4.2%"}
{"smiles": "CP(=O)(Nc1cccc(Br)c1)Oc1ccccc1", "note": "(stereo not given)", "inhibition": "inactive: 2.58%"}
{"smiles": "Cc1cc(C)cc(OP(C)(=O)Nc2ccccn2)c1", "note": "(stereo not given)", "inhibition": "inactive: -3.12%"}
{"smiles": "Cc1cc(C)cc(OP(C)(=O)Nc2ccc(C)cc2C)c1", "note": "(stereo not given)", "inhibition": "inactive: 10.3%"}
{"smiles": "CCOC(=O)c1ccc(NP(C)(=O)Oc2cc(C)cc(C)c2)cc1", "note": "(stereo not given)", "inhibition": "inactive: -3.06%"}
{"smiles": "COc1ccccc1OP(C)(=O)Nc1cccc(Br)c1", "note": "(stereo not given)", "inhibition": "inactive: 0.782%"}
{"smiles": "CC1=NCCc2c1[nH]c1ccccc21.O=[N+]([O-])c1cc([N+](=O)[O-])c(O)c([N+](=O)[O-])c1", "inhibition": "inactive: 4.18%"}
{"smiles": "O=C(O)c1cccc(Nc2c([N+](=O)[O-])cc([N+](=O)[O-])cc2[N+](=O)[O-])c1", "inhibition": "inactive: -5.14%"}
{"smiles": "CP(=O)(Nc1ccc(SC(F)(F)F)cc1)Oc1ccccc1", "note": "(stereo not given)", "inhibition": "inactive: -5.75%"}
{"smiles": "CN1CCCCC1COC(=O)C1(O)c2ccccc2CCc2ccccc21", "note": "(stereo not given)", "inhibition": "inactive: -8.85%"}
{"smiles": "COc1ccccc1OP(C)(=O)Nc1c(C)cccc1C", "note": "(stereo not given)", "inhibition": "inactive: 2.26%"}
{"smiles": "O=[N+]([O-])c1cc([N+](=O)[O-])c(Nc2nnnn2CCO)c([N+](=O)[O-])c1", "inhibition": "inactive: 1.77%"}
{"smiles": "CC1=C2N=C(C=C3N=C(C(C)=C4[N-][C@@](C)([C@@H]5N=C1[C@](C)(CCC(=O)NC[C@@H](C)OP(=O)([O-])O[C@H]1[C@@H](O)[C@@H](n6cnc7cc(C)c(C)cc76)O[C@@H]1CO)[C@H]5CC(N)=O)[C@@](C)(CC(N)=O)[C@@H]4CCC(N)=O)[C@@](C)(CC(N)=O)[C@@H]3CCC(N)=O)C(C)(C)[C@@H]2CCC(N)=O.[C-]#N.[Co+3]", "inhibition": "inactive: 25.2%"}
{"smiles": "CCOC(=O)C(CC)C1=NC(C)(C)Cc2ccccc21.O=[N+]([O-])c1cc([N+](=O)[O-])c(O)c([N+](=O)[O-])c1", "note": "(stereo not given)", "inhibition": "inactive: -13.9%"}
{"smiles": "Cc1nc2ccc3ccccc3c2s1.O=[N+]([O-])c1cc([N+](=O)[O-])c(O)c([N+](=O)[O-])c1", "inhibition": "inactive: -4.57%"}
{"smiles": "O=[N+]([O-])c1cc([N+](=O)[O-])c(-c2cnn(-c3ccccc3)c2)c([N+](=O)[O-])c1", "inhibition": "inactive: 9.86%"}
{"smiles": "O=[N+]([O-])c1cc([N+](=O)[O-])c(-n2nnc3ccccc32)c([N+](=O)[O-])c1", "inhibition": "inactive: -3.85%"}
{"smiles": "Cc1ccccc1NP(C)(=O)Nc1ccccc1C", "inhibition": "inactive: -1.33%"}
{"smiles": "CP(=O)(Nc1ccc2c(c1)OCCO2)Oc1ccccc1", "note": "(stereo not given)", "inhibition": "inactive: -5.77%"}
{"smiles": "CCOP(C)(=S)SCC(=O)NC(C)(CC)C(=O)O", "note": "(stereo not given)", "inhibition": "inactive: -9.12%"}
{"smiles": "CP(=O)(Nc1ccc(SC(F)(F)F)cc1)Oc1ccc(F)cc1", "note": "(stereo not given)", "inhibition": "inactive: 9.27%"}
{"smiles": "Cc1c(C(c2ccc3c(c2)OCO3)c2c(C)n(C)n(-c3ccccc3)c2=O)c(=O)n(-c2ccccc2)n1C.O=[N+]([O-])c1cc([N+](=O)[O-])c(O)c([N+](=O)[O-])c1", "inhibition": "inactive: -2.89%"}
{"smiles": "O=[N+]([O-])c1cc([N+](=O)[O-])c(NCC2CCS(=O)(=O)C2)c([N+](=O)[O-])c1", "note": "(stereo not given)", "inhibition": "inactive: 0.041%"}
{"smiles": "Cc1cc(-c2cccc3ccccc23)c(C)cn1.O=[N+]([O-])c1cc([N+](=O)[O-])c(O)c([N+](=O)[O-])c1", "inhibition": "inactive: -1.38%"}
{"smiles": "O=[N+]([O-])c1ccc(OP2(=O)COCCO2)cc1", "note": "(stereo not given)", "inhibition": "inactive: -28.9%"}
{"smiles": "COc1ccc(NP(C)(=O)Oc2ccccc2OC)cc1", "note": "(stereo not given)", "inhibition": "inactive: -1.41%"}
{"smiles": "CN(C)CCOC(=O)C(O)(c1ccccc1)C1CCCCC1", "note": "(stereo not given)", "inhibition": "inactive: -2.47%"}
{"smiles": "COc1ccc(OP(C)(=O)Nc2cccc(Br)c2)cc1", "note": "(stereo not given)", "inhibition": "inactive: -3.1%"}
{"smiles": "O=[N+]([O-])c1cc([N+](=O)[O-])c(OC2CCCCC2O)c([N+](=O)[O-])c1", "note": "(stereo not given)", "inhibition": "inactive: -16.3%"}
{"smiles": "CCCCCOc1ccc(NP(C)(=O)Oc2ccc(Cl)cc2Cl)cc1", "note": "(stereo not given)", "inhibition": "inactive: -5.64%"}
{"smiles": "CP(=O)(Nc1ccccc1)Oc1ccc(F)cc1", "note": "(stereo not given)", "inhibition": "inactive: 8.72%"}
{"smiles": "CCN(CC)CCCOC(=O)C(O)(c1ccccc1)C1CCCCC1", "note": "(stereo not given)", "inhibition": "inactive: -4.95%"}
{"smiles": "Cc1c([N+](=O)[O-])cc([N+](=O)[O-])c(Br)c1[N+](=O)[O-]", "inhibition": "inactive: -9.37%"}
{"smiles": "COc1ccc(OP(C)(=O)Nc2ccc(SC(F)(F)F)cc2)cc1", "note": "(stereo not given)", "inhibition": "inactive: -0.261%"}
{"smiles": "CCOC(=O)c1ccc(NP(C)(=O)Oc2ccc(F)cc2)cc1", "note": "(stereo not given)", "inhibition": "inactive: -3.21%"}
{"smiles": "COc1ccc2c(c1O)-c1c(O)c(OC)cc3c1[C@H](C2)[N+](C)(C)CC3.O=[N+]([O-])c1cc([N+](=O)[O-])c([O-])c([N+](=O)[O-])c1[O-]", "inhibition": "inactive: 1.69%"}
{"smiles": "O=C(OC1CN2CCC1CC2)c1ccc([N+](=O)[O-])cc1", "note": "(stereo not given)", "inhibition": "inactive: -26.1%"}
{"smiles": "CC(C)c1ccc(OP(C)(=O)Nc2ccc(SC(F)(F)F)cc2)cc1", "note": "(stereo not given)", "inhibition": "inactive: -4.23%"}
{"smiles": "CP(=O)(Nc1ccccc1F)Oc1ccccc1", "note": "(stereo not given)", "inhibition": "inactive: -15.7%"}
{"smiles": "CCc1ccc(OP(C)(=O)O)cc1", "inhibition": "inactive: -5.3%"}
{"smiles": "CP(=O)(Nc1ccccn1)Oc1ccccc1", "note": "(stereo not given)", "inhibition": "inactive: -3.65%"}
{"smiles": "COc1ccccc1OP(C)(=O)Nc1ccc(C)cc1C", "note": "(stereo not given)", "inhibition": "inactive: -5.59%"}
{"smiles": "O=[N+]([O-])c1cc([N+](=O)[O-])c(Nc2ccccn2)c([N+](=O)[O-])c1", "inhibition": "inactive: 16.5%"}
{"smiles": "Cc1c(NP(C)(=O)Oc2ccc(C(C)C)cc2)c(=O)n(-c2ccccc2)n1C", "note": "(stereo not given)", "inhibition": "inactive: -1.24%"}
{"smiles": "CN(C)CCOC(=O)C(O)(c1ccccc1)C1CCCC1", "note": "(stereo not given)", "inhibition": "inactive: -20.2%"}
{"smiles": "COc1ccc(OP(C)(=O)Nc2ccccn2)cc1", "note": "(stereo not given)", "inhibition": "inactive: 0.343%"}
{"smiles": "COc1ccccc1OP(C)(=O)Nc1ccc(Br)cc1", "note": "(stereo not given)", "inhibition": "inactive: -5.42%"}
{"smiles": "CP(=O)(OCCOc1ccccc1)OCCOc1ccccc1", "inhibition": "inactive: -0.826%"}
{"smiles": "CP(=O)(Nc1ccc(Cl)cc1Cl)Oc1ccccc1", "note": "(stereo not given)", "inhibition": "inactive: -3.51%"}
{"smiles": "CCCCCCCCCCCCCCCC1C[N+](C)(C)CCOP(C)(=O)O1", "note": "(stereo not given)", "inhibition": "inactive: 2.49%"}
{"smiles": "COc1ccc(OP(C)(=O)Nc2ccccc2Br)cc1", "note": "(stereo not given)", "inhibition": "inactive: -1.37%"}
{"smiles": "COc1ccccc1OP(C)(=O)Nc1ccc(C)c(C)c1", "note": "(stereo not given)", "inhibition": "inactive: -4.5%"}
{"smiles": "O=C1C(O)=C([N+](=O)[O-])C(=O)C(O)=C1[N+](=O)[O-]", "inhibition": "inactive: 5.26%"}
{"smiles": "Cc1cc(C)cc(OP(C)(=O)Nc2cccc(C(F)(F)F)c2)c1", "note": "(stereo not given)", "inhibition": "inactive: -1.67%"}
{"smiles": "CP(=O)(OC12CC3CC(CC(C3)C1)C2)OC12CC3CC(CC(C3)C1)C2", "inhibition": "inactive: 4.62%"}
{"smiles": "CCOC(=O)c1ccc(NP(C)(=O)Oc2ccc(Cl)cc2)cc1", "note": "(stereo not given)", "inhibition": "inactive: -0.742%"}
{"smiles": "CN(C)C(=O)c1c([N+](=O)[O-])cc([N+](=O)[O-])cc1[N+](=O)[O-]", "inhibition": "inactive: 7.31%"}
{"smiles": "CP(=O)(Nc1ccc(Cl)cc1)Oc1ccc(F)cc1", "note": "(stereo not given)", "inhibition": "inactive: -20.2%"}
{"smiles": "CC(C)(C)c1ccc(OP(C)(=O)O)cc1", "inhibition": "inactive: 0.947%"}
{"smiles": "COc1ccccc1OP(C)(=O)Nc1ccccc1Br", "note": "(stereo not given)", "inhibition": "inactive: 0.295%"}
{"smiles": "CP(=O)(Oc1ccccc1)N1CCOC1=O", "note": "(stereo not given)", "inhibition": "inactive: -5.45%"}
{"smiles": "CCc1ccc(OP(C)(=O)Nc2cccnc2)cc1", "note": "(stereo not given)", "inhibition": "inactive: 10.6%"}
{"smiles": "COc1ccccc1OP(C)(=O)Nc1c(C)n(C)n(-c2ccccc2)c1=O", "note": "(stereo not given)", "inhibition": "inactive: -2.57%"}
{"smiles": "O=C(OCCCN1CCCC1)C(O)(c1ccccc1)C1CCCCC1", "note": "(stereo not given)", "inhibition": "inactive: -0.816%"}
{"smiles": "CCN(CC)CC(O)COC(=O)C(O)(c1ccccc1)C1CCCCC1", "note": "(stereo not given)", "inhibition": "inactive: 0.149%"}
{"smiles": "COc1ccc(OP(C)(=O)Nc2ccc(Br)cc2)cc1", "note": "(stereo not given)", "inhibition": "inactive: -0.953%"}
